## Yeast mating assay 2: variants of the scFv Ab-95

Data: MIT Lincoln Laboratory AlphaSeq set, Engelhart et al. 2022, doi:10.1038/s41597-022-01779-4, as distributed in FLAb.

Target: peptide PDVDLGDISGINAS, taken from heptad repeat 2 (HR2) of SARS-CoV-2 spike.

The variants keep the heavy chain, the linker and the frameworks of Ab-95 (scFv order VH, three GGGGS repeats, VL).
VH: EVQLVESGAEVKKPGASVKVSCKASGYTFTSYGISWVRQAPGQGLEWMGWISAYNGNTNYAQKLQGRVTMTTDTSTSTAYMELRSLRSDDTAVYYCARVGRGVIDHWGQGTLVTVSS
VL: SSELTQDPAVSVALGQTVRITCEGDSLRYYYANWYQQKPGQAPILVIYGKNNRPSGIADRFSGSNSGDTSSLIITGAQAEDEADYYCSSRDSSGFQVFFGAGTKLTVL

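The starting antibody came from a phage panning campaign against this peptide. Library AAYL52 holds single substitutions and randomly drawn double and triple substitutions in the CDRs. In AlphaSeq, yeast of one mating type display the scFv and yeast of the other type display the target. The frequency of each diploid, read from paired DNA barcodes, reflects how well the two displayed proteins bind. Read counts were normalised to the haploid input and turned into Kd by a linear fit to BCL2-family pairs of known affinity, for each replicate. Mating was done three times.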

Substitutions are numbered in sequence along the VL above, starting at 1 (not Kabat). Numbers give log10(Kd / nM), so 0 is 1 nM and 3 is 1 µM. Smaller is tighter. Replicates are averaged; those with no signal do not enter the mean. "ND" means that the variant was in the library but no mating with the target was seen in that replicate; the authors take this as a sign of poor binding, and no number exists. In this assay the parent's reference entry averaged 2.31; its copy inside this library read 2.25. Three control strains display no target. For library AAYL52, 28% of the pairings with them gave a signal, with a median of 3.91 and one signal in twenty below 2.90, so weak values seen in few replicates may be background.

"replicates, log10 nM",mean log10 Kd (nM),changes
ND 4.22 4.22,4.22,A32W+S88Q+D91A
4.60 ND 4.40,4.50,G24P+N33G+S89P
ND ND 3.86,3.86,D25C+A32L+F98R
2.91 3.14 3.69,3.25,L27V+Y31R+S92K
3.67 3.37 3.21,3.42,E23M+R28M+G94I
3.91 5.49 ND,4.70,G49K+S55A
4.27 4.38 ND,4.32,E23M+R90A+D91K
4.66 4.28 ND,4.47,G49M+D91M+S92L
2.48 2.10 2.16,2.24,Y30R+Q96E
3.13 ND 3.62,3.37,A32W+P54M+S92R
4.94 3.59 2.77,3.77,S92C+Q96M+V97Y
1.35 1.21 0.84,1.13,Y30P+S55D
5.09 ND ND,5.09,A32M+P54F+S92I
5.51 4.08 2.94,4.18,E23N+N51W+Q96T
3.81 ND ND,3.81,Y29K+A32K+S93R
3.16 3.68 2.83,3.23,Y31C+A32G+S88A
2.93 4.06 4.40,3.79,L27D+S88T+V97H
4.11 4.64 3.51,4.09,Y29V+Y31K+R90Q
2.08 2.20 1.23,1.84,Y30V+Y31M
ND ND ND,ND,S26K+Y31S+Q96V
3.61 ND 4.37,3.99,L27I+N52W+F95P
4.17 ND 4.56,4.36,E23L+G49Y+R53H
ND ND 4.10,4.10,N33Y+S55C+D91S
1.44 1.51 0.98,1.31,R28V+Y30D+F95M
ND ND ND,ND,A32F+S55E+R90C
3.65 ND ND,3.65,S88Q+D91Q+F95K
2.35 2.77 2.15,2.42,E23L+S88E
2.84 3.09 3.06,3.00,N52A+V97N+F98D
5.29 ND ND,5.29,Y30V+G49V+F95K
3.46 3.16 4.35,3.65,Y31L+S55V+S93C
2.79 2.77 2.49,2.68,Y31P+N51A+R90K
ND 3.37 3.09,3.23,Y31T+R53F+S92N
ND ND ND,ND,N52Q+R53G+R90L
ND ND ND,ND,L27M+G49Y+G94S
3.55 5.87 4.54,4.65,E23T+D25W+G49W
1.37 1.70 1.10,1.39,Y30R+S88M+F95S
3.22 3.14 3.00,3.12,E23G+R28W+F95V
ND ND ND,ND,G24I+S26D+S89M
1.90 2.60 1.87,2.12,Y31H+S89T+Q96W
4.51 ND ND,4.51,L27F+Y29K+S93W
3.31 ND ND,3.31,G24W+S26F
3.93 ND ND,3.93,N51Q+P54T+S93I
1.91 1.45 1.81,1.72,S26Y+Y29C+N51H
2.95 3.01 2.37,2.78,L27T+Y30A+S55C
2.40 2.64 2.75,2.60,L27K+Y30P+S92G
2.58 2.63 2.13,2.45,E23D+Y31T+S92K
4.12 3.17 2.70,3.33,E23S+A32M+D91M
2.56 2.44 1.95,2.32,D25H+S92A+F98M
3.67 2.62 1.89,2.72,D25Y+S88C+F98G
3.44 3.70 ND,3.57,S26N+Y29K
4.12 3.78 4.58,4.16,S26I+N51G+S92I
3.71 ND 4.16,3.94,E23T+G24V+R28F

4 of these entries, quoted again:

{"changes": "Y30P+S55D", "replicates, log10 nM": "1.35 1.21 0.84", "mean log10 Kd (nM)": "1.13"}
{"changes": "L27V+Y31R+S92K", "replicates, log10 nM": "2.91 3.14 3.69", "mean log10 Kd (nM)": "3.25"}
{"changes": "E23T+G24V+R28F", "replicates, log10 nM": "3.71 ND 4.16", "mean log10 Kd (nM)": "3.94"}
{"changes": "E23D+Y31T+S92K", "replicates, log10 nM": "2.58 2.63 2.13", "mean log10 Kd (nM)": "2.45"}